Earlier results in patent US20240390359A1, “METHODS FOR THE TREATMENT AND PREVENTION OF NON-VIRAL TICK-BORNE DISEASES AND SYMPTOMS THEREOF” (priority 2023, published 2024).

How the values were obtained:
Babesia microti = conditions: Mongolian jirds; primaquine given daily; cited from earlier work
[1] = tested on: blood stages of P. falciparum; conditions: in vivo; cited from earlier work

COc1cc(NC(C)CCCN)c2ncccc2c1 (centres unmarked) [primaquine]
efficacy against Babesia microti (Babesia microti): only suppressive | activity against the blood stages of P. falciparum [1]: only weak activity
